As a reminder, the Ki is the dissociation constant of the complex between target and ligand, obtained from inhibition or displacement.

The chains behind the UniProt entries cited, without tags or fusion partners.
UniProt P41143, whole entry, looked up: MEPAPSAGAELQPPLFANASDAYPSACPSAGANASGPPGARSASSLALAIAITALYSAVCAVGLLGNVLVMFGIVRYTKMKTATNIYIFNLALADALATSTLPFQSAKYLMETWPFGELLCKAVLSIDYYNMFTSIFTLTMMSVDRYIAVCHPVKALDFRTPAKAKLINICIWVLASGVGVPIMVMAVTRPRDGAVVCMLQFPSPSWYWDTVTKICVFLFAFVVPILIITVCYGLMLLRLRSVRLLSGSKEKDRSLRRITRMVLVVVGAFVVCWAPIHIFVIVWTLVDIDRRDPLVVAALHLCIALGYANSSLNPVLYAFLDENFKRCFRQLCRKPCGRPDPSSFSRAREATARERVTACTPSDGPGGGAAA

Ki data for one compound are collected here from BindingDB's records for 12930147, “Synthesis, biological evaluation, and receptor docking simulations of 2-[(acylamino)ethyl]-1,4-benzodiazepines as kappa-opioid receptor agonists endowed with antinociceptive and antiamnesic activity” (2003).

This assay addresses Delta-type opioid receptor (Homo sapiens, UniProt P41143).

For the compound `CN(C(=O)Cc1ccccc1)[C@H]1C[C@@]2(CCCO2)CC[C@@H]1N1CCCC1`, the Ki is > 10 µM.
